Literature values as cited in patent US20240228572A1 (i2o Therapeutics, Inc., priority 2020, published 2024).

Details: in humans; cited from earlier work

CC[C@H](C)[C@H](NC(=O)[C@@H]1CCCN1C(=O)CNC(=O)[C@H](Cc1ccccc1)NC(=O)[C@H](CC(N)=O)NC(=O)[C@H](CC(N)=O)NC(=O)[C@H](CO)NC(=O)[C@H](CO)NC(=O)[C@H](Cc1c[nH]cn1)NC(=O)[C@@H](NC(=O)[C@H](CC(C)C)NC(=O)[C@H](Cc1ccccc1)NC(=O)[C@H](CC(N)=O)NC(=O)[C@H](C)NC(=O)[C@H](CC(C)C)NC(=O)[C@H](CCCNC(=N)N)NC(=O)[C@H](CCC(N)=O)NC(=O)[C@@H](NC(=O)[C@H](C)NC(=O)[C@@H]1CSSC[C@H](NC(=O)[C@@H](N)CCCCN)C(=O)N[C@@H](CC(N)=O)C(=O)N[C@@H]([C@@H](C)O)C(=O)N[C@@H](C)C(=O)N[C@@H]([C@@H](C)O)C(=O)N1)[C@@H](C)O)C(C)C)C(=O)N[C@@H](CC(C)C)C(=O)N1CCC[C@H]1C(=O)N1CCC[C@H]1C(=O)N[C@H](C(=O)N[C@@H](CC(N)=O)C(=O)N[C@H](C(=O)NCC(=O)N[C@@H](CO)C(=O)N[C@@H](CC(N)=O)C(=O)N[C@H](C(=O)N[C@@H](Cc1ccc(O)cc1)C(N)=O)[C@@H](C)O)C(C)C)[C@@H](C)O [pramlintide]
half-life: approximately 48 minutes
